Target: T1, hCRFR1α (Homo sapiens, UniProt P34998)
T1 construct: The cDNAs encoding full-length mature forms of hCRFR1α and mCRFR2β were introduced into pET-26b plasmid; made in house; host or cells: E. coli (membrane fraction)
T1 sequence (P34998 24-415): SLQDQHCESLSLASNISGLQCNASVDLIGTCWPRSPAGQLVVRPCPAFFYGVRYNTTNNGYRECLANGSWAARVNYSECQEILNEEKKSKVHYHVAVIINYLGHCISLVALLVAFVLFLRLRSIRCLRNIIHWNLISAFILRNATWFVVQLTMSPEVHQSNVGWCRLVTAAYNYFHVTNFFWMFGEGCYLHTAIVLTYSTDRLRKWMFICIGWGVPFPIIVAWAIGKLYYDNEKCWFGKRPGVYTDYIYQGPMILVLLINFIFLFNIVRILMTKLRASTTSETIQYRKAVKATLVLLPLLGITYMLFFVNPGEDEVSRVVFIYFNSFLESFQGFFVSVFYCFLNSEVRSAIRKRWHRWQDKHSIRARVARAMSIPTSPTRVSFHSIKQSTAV
Test: Competitive displacement of labeled astressin, hCRFR1α in E. coli membranes
Details: read-out: Inhibitory binding constant (Ki)
Method: The incubation was performed at room temp for 90-120 min, at which time the plates were aspirated and each well was washed with 2×100 μl assay buffer, dried and counted in a γ-counter. Each assay included at least triplicate wells for each concentration, and the assays were repeated at least twice (except where indicated). […] The saturation and competitive binding experiments are analyzed by non-linear regression with the GraphPad Prism program (www.graphpad.com) assuming binding to a single site. Specifically, for saturation binding experiments, binding is determined as a function of increasing concentrations of radioligand. The equation used is y = {(Bmax)^.[radioligand]}/{Kd+[radioligand]}, where y = the specific binding (i.e., total binding-non-specific binding). Competitive binding experiments use a constant concentration of radioligand together with increasing concentrations of competitor. […] Because [radioligand] is <Kd, the Ki = EC50. For multiple determinations, Log (EC50) values were averaged to calculate the values in Table 1. […] In Table 1, the inhibition constant (Ki) values are shown together with the standard error and ranges, calculated assuming log normal distribution.

- Ki: 98 nM
SMILES: CC[C@H](C)[C@H](NC(=O)[C@H](CO)NC(=O)[C@H](CC(C)C)NC(=O)[C@@H]1CCCN1C(=O)[C@@H]1CCCN1C(=O)[C@H](CC(=O)O)NC(=O)[C@@H](N)CC(=O)O)C(=O)N[C@@H](CC(=O)O)C(=O)N[C@@H](CC(C)C)C(=O)N[C@H](C(=O)N[C@@H](Cc1ccccc1)C(=O)N[C@@H](Cc1c[nH]cn1)C(=O)N[C@@H](CC(C)C)C(=O)N[C@@H](CC(C)C)C(=O)N[C@@H](CCCNC(=N)N)C(=O)N[C@H](C(=O)N[C@@H](CC(C)C)C(=O)N[C@@H](CC(C)C)C(=O)N[C@@H](CCC(=O)O)C(=O)N[C@@H](CC(C)C)C(=O)N[C@@H](C)C(=O)N[C@@H](CCCNC(=N)N)C(=O)N[C@H](C(=O)N[C@@H](CCC(N)=O)C(=O)N[C@@H](CO)C(=O)N[C@@H](CCC(N)=O)C(=O)N[C@@H](CCCNC(=N)N)C(=O)N[C@@H](CCC(=O)O)C(=O)N[C@@H](CCCNC(=N)N)C(=O)N[C@@H](C)C(=O)N[C@@H](CCC(=O)O)C(=O)N[C@@H](CCC(N)=O)C(=O)N[C@@H](CC(N)=O)C(=O)N[C@@H](CCCNC(=N)N)C(=O)N[C@H](C(=O)N[C@H](C(=O)N[C@@H](Cc1ccccc1)C(=O)N[C@@H](CC(=O)O)C(=O)N[C@@H](CO)C(=O)N[C@H](C(N)=O)C(C)C)[C@@H](C)CC)[C@@H](C)CC)[C@@H](C)O)[C@@H](C)O)[C@@H](C)O [rUcn1]

Source: article PMC3894963, “Expression and Functional Characterization of Membrane-Integrated Mammalian Corticotropin Releasing Factor Receptors 1 and 2 in Escherichia coli” (PLoS ONE, 2014)
